Tested on: VEGF-induced retinal vascular leakage
Assay: VEGF-induced vascular leakage in a rabbit model of blood-retinal barrier breakdown (ocular fluorophotometry)
Settings: TA 135 μg, single intravitreal injection Day 0, 500 ng rhVEGF165 Day 5, fluorophotometry Day 7

Compound: CC1(C)O[C@@H]2C[C@H]3[C@@H]4CCC5=CC(=O)C=C[C@]5(C)[C@@]4(F)[C@@H](O)C[C@]3(C)[C@]2(C(=O)CO)O1 [TA, triamcinolone acetonide]
- Inhibition of retinal vascular leakage: 27%

Reference: patent US20100233194A1, “TREATMENT OF NEOVASCULAR OCULAR DISEASE STATES” (priority 2007, published 2010)
